Experiment: Solubility of P-bi-TAT
Format: physicochemical
Method: Chemical Name: O,O′-Bis({4-[3,5-diiodo-4-(1-methylen-1,2,3-triazol-4-ylmethoxy)phenoxy]-3,5-diiodophenyl}acetic acid) polyethylene glycol. Physical Appearance: Yellowish brown powder Solubility: Soluble in water at 50 mg/ml; in Phosphate buffer, pH 8.0 at 100 mg/ml; in 10% Ethanol at 150 mg/ml, and in 50% propylene glycol at 200-300 mg/ml.

In the case of “O,O′-Bis({4-[3,5-diiodo-4-(1-methylen-1,2,3-triazol-4-ylmethoxy)phenoxy]-3,5-diiodophenyl}acetic acid) polyethylene glycol [P-bi-TAT]”, the “Solubility in 10% Ethanol” value (10% Ethanol) is reported as 150 mg/mL, the “Solubility in 50% propylene glycol” value (50% propylene glycol) is reported as 200 to 300 mg/mL and the “Solubility in Phosphate buffer, pH 8.0” value (Phosphate buffer, pH 8.0) is reported as 100 mg/ml. For the same substance, the Solubility in water (water) was 50 mg/mL.

From patent publication US10695436B2, “Non-cleavable polymer conjugated with alpha V beta 3 integrin thyroid antagonists” (NANOPHARMACEUTICALS, LLC, priority 2016, dated 2020)
